From patent US20070027073A1, “Long-acting derivatives of pyy agonists” (priority 2003, published 2007) come the findings set out here.

The assay concerns normal C57BL/6 male mice. The experiment in a line: mouse re-feeding model, food intake after starvation. The assay is classed as in vivo. Here is the method:
To evaluate the efficacy of (FMS)2-PYY3-36 as modulator of food intake, it was studied in a re-feeding model. Briefly, normal C57BL/6 male mice were subjected to a starvation period of 24 h with unrestricted supply of drinking water. At different time points during the starvation the mice were injected intra-peritoneally with either saline, PYY3-36 or (FMS)2-PYY3-36. At the end of the starvation period, the mice were presented with pre-weighted supply of standard chow and the amount of food consumed during the first 2 h was recorded. Each study group consisted of 10 mice and the amount of food consumed was measured per 10 mice. When mice were injected with 2.5 μg of PYY3-36 in 0.1 ml saline at time 24 h (immediately before providing the food), there was a 28% reduction of food intake as compared with a control group of mice injected with saline. When mice were injected with 2.5 μg of PYY3-36 in 0.1 ml saline at time 23 h 45 min (15 min. before providing the food), there was a 40% reduction of food intake as compared with a control group of mice injected with saline. The improved response to PYY3-36 in the second experiment was due to higher food consumption in the group injected with saline at 23 h 45 min as compared with the group injected with saline at 24 h. […] In another study, mice were injected with 1 μg of PYY3-36 at time 23 h, 45 min. and the amount of food consumed was reduced by 31% as compared with a saline-injected group. Thus, a dose-response was obtained.
The efficacy of (FMS)2-PYY3-36 as a modulator of food intake was studied using a re-feeding model. A group of 10 normal C57BL/6 male mice at the age of 9 weeks were subjected to starvation for a period of 24 h with unrestricted supply of drining water. At the end of this period, the mice were injected intra-peritoneally with either 0.1 ml saline or 2.5 μg PYY3-36 dissolved in 0.1 ml saline per mouse. The mice were then immediately presented with pre-weighted supply of standard chow and the amount of food consumed during the first 2 h was recorded. Each study group consisted of 10 mice and the amount of food consumed as reported in this example was per 10 mice. The amount of chow consumed by the group of 10 saline-injected control mice was 9.9 g. The amount of chow consumed by the group of 10 PYY3-36-injected mice was 7.1 g.
Two groups of 10 normal male C57BL/6 mice at the age of 10 weeks were subjected to starvation for a period of 24 h, with unrestricted supply of drinking water. At time 23 h 45 min, one group of mice was injected intraperitoneally with 0.1 ml saline and the second group was injected with 2.5 μg PYY3-36 dissolved in 0.1 ml saline per mouse. The mice were presented at 24 h with a pre-weighted supply of standard chow and the amount of food consumed during the first 2 h was recorded. The amount of chow consumed by the group of 10 saline-injected control mice was 10.9 g. The amount of chow consumed by the group of 10 PYY3-36-injected mice was 6.5 g.
Two groups of 10 normal male C57BL/6 mice at the age of 12 weeks were subjected as before to starvation for a period of 24 h with unrestricted supply of drinking water. At time 19 h, one group of mice was injected intra-peritoneally with 0.1 ml saline and the second group was injected with 2.5 μg PYY3-36 dissolved in 0.1 ml saline per mouse. The mice were presented at 24 h with a pre-weighted supply of standard chow and the amount of food consumed during the first 2 h was recorded. The amount of chow consumed by the group of 10 saline-injected control mice was 11.2 g. The amount of chow consumed by the group of 10 PYY3-36-injected mice was 11.4 g. […] Therefore, when PYY3-36 is administered at a dose of 2.5 μg per mouse, its effect on food intake is lost after 5 h.
Two groups of 10 normal male C57BL/6 mice at the age of 12 weeks were subjected to starvation for a period of 24 h with unrestricted supply of dinking water. […]

[1] abbreviates: 20 μg given 4 h before re-feeding at 24 h.
Where [2] appears, read: 20 μg i.p. at time 45 h (so in the source), food at 24 h, first 2 h.
The mark [3] stands for this setting: 50 μg i.p. at time 23 h, food at 29 h (starvation 29 h), first 2 h.
The mark [4] stands for this setting: 3 microgram per mouse i.p. at time 23 h 45 min, food at 24 h, first 2 h.

For the substance “FMS-Ile-Lys(e-FMS)-Pro-Glu-Ala-Pro-Gly-Glu-Asp-Ala-Ser-Pro-Glu-Glu-Leu-Asn-Arg-Tyr-Try-Ala-Ser-Leu-Arg-His-Tyr-Leu-Asn-Leu-Val-Thr-Arg-Gln-Arg-Tyr-NH2 [(FMS)2-PYY3-36]”, where the note is “5 μg per mouse at time 23 h 45 min”, the “amount of food consumed relative to that consumed by saline-injected group” value was 90%. For the same substance, the “reduction of food consumed as compared with saline-injected group” value reads like this: (20 μg at time 5 h, 19 h before re-feeding, food consumed at time 24-26 h) 26%; (50 μg at time 18 h, 6 h before re-feeding) 49%. Also, the “amount of chow eaten by the group of 10 mice” value under setting [1] worked out at 7.4 g. Besides, under setting [1], the “reduction in food intake vs saline” value is reported as 40%. Moreover, the “amount of chow consumed by the group of 10 mice” value runs as follows: under setting [2], 8.3 g; under setting [3], 5.9 g; under setting [4], 9.9 g. For the same substance, the “reduction of food consumed as compared with saline-injected control group” value under setting [2] is given as 26% and the “reduction of food consumed as compared with saline-injected control group” value under setting [3] was found to be 51%. Besides, under setting [4], the “effect on food intake (reduction vs saline)” value was 10%.
